Literature values in paper PMC8954214, “Preparation, Identification, Molecular Docking Study and Protective Function on HUVECs of Novel ACE Inhibitory Peptides from Protein Hydrolysate of Skipjack Tuna Muscle” (Marine Drugs, 2022).
≈ marks a conversion by molar mass, not a printed value.

Protein sequences, listed by entry. Tags and fused reporters are not part of them. Residues count along the entry.
UniProt P12822, 34-1310 limits assumed: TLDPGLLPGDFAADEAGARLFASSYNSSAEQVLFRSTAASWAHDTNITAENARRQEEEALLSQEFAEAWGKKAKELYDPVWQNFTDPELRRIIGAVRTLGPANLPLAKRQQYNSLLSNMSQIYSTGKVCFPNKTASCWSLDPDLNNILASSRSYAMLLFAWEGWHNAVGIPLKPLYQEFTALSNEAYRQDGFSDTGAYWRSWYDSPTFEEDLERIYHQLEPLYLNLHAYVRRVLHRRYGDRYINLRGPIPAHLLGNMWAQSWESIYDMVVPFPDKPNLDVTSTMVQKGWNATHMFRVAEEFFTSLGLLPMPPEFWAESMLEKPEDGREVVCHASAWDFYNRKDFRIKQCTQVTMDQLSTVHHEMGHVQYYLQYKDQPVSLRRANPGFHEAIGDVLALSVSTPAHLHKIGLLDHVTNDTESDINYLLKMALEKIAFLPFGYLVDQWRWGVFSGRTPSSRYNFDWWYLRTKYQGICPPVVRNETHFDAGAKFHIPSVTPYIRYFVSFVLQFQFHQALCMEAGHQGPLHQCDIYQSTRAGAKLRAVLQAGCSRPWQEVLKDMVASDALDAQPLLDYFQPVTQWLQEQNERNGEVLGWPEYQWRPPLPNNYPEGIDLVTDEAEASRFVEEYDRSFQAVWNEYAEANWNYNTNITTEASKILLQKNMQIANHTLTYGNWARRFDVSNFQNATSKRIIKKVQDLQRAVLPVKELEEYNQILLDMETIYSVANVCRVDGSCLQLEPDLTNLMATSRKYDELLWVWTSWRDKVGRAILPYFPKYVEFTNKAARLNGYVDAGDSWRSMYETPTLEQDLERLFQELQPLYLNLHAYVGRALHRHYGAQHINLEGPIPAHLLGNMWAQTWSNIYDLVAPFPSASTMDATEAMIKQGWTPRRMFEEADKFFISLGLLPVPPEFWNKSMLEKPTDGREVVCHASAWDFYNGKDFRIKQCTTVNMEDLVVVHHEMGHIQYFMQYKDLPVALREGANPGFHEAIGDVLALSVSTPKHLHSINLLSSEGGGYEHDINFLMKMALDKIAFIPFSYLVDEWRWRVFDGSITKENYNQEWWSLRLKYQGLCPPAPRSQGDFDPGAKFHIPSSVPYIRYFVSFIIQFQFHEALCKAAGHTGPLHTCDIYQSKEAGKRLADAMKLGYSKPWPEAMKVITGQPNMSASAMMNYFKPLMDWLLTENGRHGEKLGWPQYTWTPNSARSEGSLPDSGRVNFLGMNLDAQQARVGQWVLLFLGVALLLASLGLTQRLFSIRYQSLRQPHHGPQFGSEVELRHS

How the values were obtained:
[1] = molecular target: ACE (Oryctolagus cuniculus, UniProt P12822); settings: Antarctic krill peptides; cited from earlier work
[2] = tested on: HUVECs; settings: cited from earlier work
[3] = tested on: ET-1; settings: from Antarctic krill; cited from earlier work

Structure (SMILES) | IC50 [1] | NO production of HUVEC [2] | ET-1 content [3]
C[C@H](NC(=O)[C@@H](N)Cc1ccc(O)cc1)C(=O)N[C@@H](CCCCN)C(=O)O | 1260 µg/mL (≈ 3310 µM) | – | –
N[C@@H](Cc1c[nH]c2ccccc12)C(=O)N[C@@H](Cc1ccccc1)C(=O)O | 320 µg/mL (≈ 911 µM) | increasing the NO production | reducing ET-1 content
